In this test the test system is MCF7. Kind of test: Induction of degradation of ER-alpha Y537S mutant (unknown origin) expressed in human MCF7 cells at 0.1 to 1000 nM incubated for 24 hrs by western blot analysis. Format: cell-based. Conditions: dose 0.1-1000 nM. (In general: In western blotting, separated proteins are transferred to a membrane and probed.)

The structures appear in SMILES notation.

For `Oc1ccc2c(c1)SC[C@H](c1cc(F)c(F)cc1F)[C@@H]2c1ccc(OCCN2CC(CF)C2)cc1`, the Activity entry is “Dose-dependent-effect”. As for `COc1cc(F)ccc1[C@H]1CSc2cc(O)ccc2[C@H]1c1ccc(OCCN2CC(CF)C2)cc1`, the entry is “Dose-dependent-effect”.

The values are drawn from ChEMBL document CHEMBL6083291, “Discovery of Thiochroman Derivatives as Potent, Oral Selective Estrogen Receptor Degraders and Antagonists for the Treatment of Endocrine-Resistant Breast Cancer” (J Med Chem, 2024).
